Measurements: PubChem BioAssay AID836 (Columbia University Molecular Screening Center, 2007)
The entries are a selection whose mix differs from that of the whole data set. Some results for these compounds are left out of this collection, so the calls shown say nothing about other tests. Active and inactive are the calls of the source.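 Rule for the calls: active = inhibition above the batch mean plus 3 SD and confirmed as a hit by visual image inspection (cut at about 30% in these data, passing the limit was not always enough); inconclusive = above the inhibition threshold but rejected on visual inspection; inactive = the rest.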

Experiment: modifiers of F-actin cytoskeleton organization, primary screen, imaging, HUVEC, phalloidin staining, high-content imaging (AID 836)
Settings: HUVEC TNFa F-actin phalloidin imaging, at 2 µM, hits give high values

SMILES	inhibition
O=C(OC1CN2CCC1CC2)C(CO)(c1ccccc1)c1ccccc1 (stereo not drawn)	inactive: -18.3%
CN(C)c1cccc(C(=O)NCC2(N(C)C)CCCCC2)c1	inactive: 18.9%
CC(C)N1C(=O)CC2(CCN(CCOC(=O)C(O)(c3ccccc3)c3ccccc3)CC2)C1=O	inactive: 3.1%
